Results: ChEMBL document CHEMBL5726152, “Heterocyclic compounds, process for preparation of the same and use thereof” (2019)

Protein sequences, listed by entry. Tags and fused reporters are not part of them.
UniProt P14416, whole entry: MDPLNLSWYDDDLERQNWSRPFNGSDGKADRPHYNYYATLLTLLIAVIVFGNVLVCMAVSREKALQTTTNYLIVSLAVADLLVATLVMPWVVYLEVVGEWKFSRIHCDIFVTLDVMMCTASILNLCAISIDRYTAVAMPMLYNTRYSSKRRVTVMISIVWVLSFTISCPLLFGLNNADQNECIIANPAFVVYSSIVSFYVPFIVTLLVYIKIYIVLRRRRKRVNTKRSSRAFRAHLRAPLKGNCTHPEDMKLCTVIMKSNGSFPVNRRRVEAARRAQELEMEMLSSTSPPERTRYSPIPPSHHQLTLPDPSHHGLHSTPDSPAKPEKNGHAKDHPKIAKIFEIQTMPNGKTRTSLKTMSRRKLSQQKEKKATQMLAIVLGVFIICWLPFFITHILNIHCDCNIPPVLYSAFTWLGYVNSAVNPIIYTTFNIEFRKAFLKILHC

Molecular target: D(2) dopamine receptor (Homo sapiens, UniProt P14416)
Format: cell-based

## O=c1ccc2ccc(CCCCCN3CCN(c4cccc5sccc45)CC3)cc2[nH]1
  IC50: 2.06 nM
